From patent publication US9981059B2, “Sugar chain-polypeptide complex” (Glytech, Inc., priority 2013, dated 2018)
“Also recorded” adds a separate entry of the source.

Tests used:
Assay type in all cases: physicochemical
[1] = Steel ball loading test of hydrogel property; set-up: key to position of the steel ball / hydrogel state: The state of the steel ball staying near the hydrogel surface was set as ◯; sinking after loading and staying internally was set as Δ; sinking to the bottom of the Durham's tube was set as X; * was added to those where the hydrogel was not uniform and clouding or insoluble matter (precipitate) was observed
Method: Ten mg of the sugar chain-polypeptide complex or 10 mg of the control polypeptide were dissolved in 500 μL of ultrapure water to prepare 2 wt. % polypeptide solutions. […] In doing so, citrate-phosphate buffer (pH 2.0 and 3.5), phosphate buffer (pH 7.4), and phosphate-sodium hydroxide buffer (pH 11.5) were employed as the buffer. The surface of the hydrogel inside the Durham's tube was horizontally placed, left still for 20 minutes under room temperature conditions, and a steel ball (diameter 1.56 mm, weight 16 mg, FUNABE SEIKO Co., Ltd.) was loaded on the hydrogel. After 10 minutes, the position of the steel ball was observed by visual confirmation.
The position of the steel ball inside the Durham's tube was evaluated in 3 grades. The state of the steel ball staying near the hydrogel surface was set as ◯, sinking after loading and staying internally was set as Δ, and sinking to the bottom of the Durham's tube was set as X. In addition, * was added to those where the hydrogel was not uniform and clouding or insoluble matter (precipitate) was observed. A hydrogel where the steel ball stays around the surface (◯) and no clouding or insoluble matter is seen (no *) was thought to be a gel that is transparent and uniform.

[2] = Steel ball loading test of hydrogels comprising rat blood plasma (utility as hemostatic matrix); set-up: key to position of the steel ball / hydrogel state: The state of the steel ball staying near the hydrogel surface was set as ◯; sinking after loading and staying internally was set as Δ; sinking to the bottom of the Durham's tube was set as X; * was added to those where the hydrogel was not uniform and clouding or insoluble matter (precipitate) was observed; settings: polypeptide 0.5 wt. %
Method: Aqueous polypeptide solutions were prepared with a method similar to Example 1. Blood was collected from 7 weeks-old Crlj:WI rats with heparin sodium injection (Ajinomoto), and blood plasma was obtained from the supernatant after centrifugation treatment. The aqueous polypeptide solution, blood plasma, and PBS were added to a Durham's tube, and hydrogels was prepared so that the plasma concentration was 5-50% and the polypeptide concentration was 0.5 wt. %. Subsequently, these were left for 20 minutes at room temperature condition, and then steel ball loading tests were carried out with a method similar to Example 1.

[3] = Circular dichroism (CD) measurement of β sheet structure
Method: In general, the characteristics of the wavelengths observed when a substance has a β sheet structure are a positive absorption at around 197 nm and a negative absorption at around 216 nm. For this reason, focus was placed on the size of these wavelengths in the present invention, and the influence of pH on the β sheet structure was investigated.
C(DiGlcNAc)-(RADA)4 which is one embodiment of the present invention or (RADA)4 as the control were dissolved in ultrapure water. One to ten millimolars of aqueous sodium hydroxide solutions were added to each of these aqueous polypeptide solutions to adjust the pH, and 100 mM aqueous polypeptide solutions at having pH 2 or pH 7 were created. These aqueous solutions were transferred to quartz cells having an optical path length of 0.1 cm. The CD spectrum was then measured with a spectrum polarimeter (J-805, Jasco) at wavelengths of 185-260 nm for ellipticity (millidegree). The mean residue ellipticity θ was calculated with the following formula: [θ]=(θobs/10·l·c)/r
wherein θobs represents the ellipticity measured in millidegree, l represents the cell length (cm), c represents the concentration (M), and r represents the number of amino acid residues.

[4] = Kinetic viscosity measurement with rheometer; settings: 0.5 wt. % hydrogel, pH 7, 25 degrees
Method: A rheometer (MCR302, Anton Paar GmbH) equipped with a stainless steel parallel plate having a diameter of 25 mm with 0.3 mm gap height was employed for kinetic viscosity measurement. C(DiGlcNAc)-(RADA)4 which is one embodiment of the present invention or (RADA)4 as the control were dissolved in ultrapure water. Five millimolars of aqueous sodium hydroxide solution was added to these aqueous polypeptide solutions in order to adjust the pH to prepare 0.5 wt. % hydrogels at pH 7. Subsequently, these hydrogels were quickly transferred to a rheometer set at 25 degrees, and phase angle (tan δ) was monitored over a time course. (frequency=1 Hz, distortion=10%)

[5] = hydrogel concentration 0.5 wt. %, pH 3.5
[6] = hydrogel concentration 0.5 wt. %, pH 7.4
[7] = peptide concentration 1 wt. %, pH 3.5
[8] = peptide concentration 1 wt. %, pH 7.4

## (RADA)4-C(DiGlcNAc) [Compound 13]
[1]; 0.5 wt. %, pH 3.5 and pH 7.4
  hydrogel formed (in words): transparent and uniform hydrogels
[1]; [5]
  position of the steel ball / hydrogel state: ◯
[1]; [6]
  position of the steel ball / hydrogel state: ◯

## C(Asialo)-(RADA)4 [Compound 4]
[1]; [7]
  position of the steel ball / hydrogel state: ◯
[1]; [8]
  position of the steel ball / hydrogel state: ◯

## C(Asialo)-(RADA)5 [Compound 6]
[1]; [7]
  position of the steel ball / hydrogel state: ◯
[1]; [8]
  position of the steel ball / hydrogel state: ◯

## C(Asialo)-(RATARAEA)2
[1]; Example 4, 0.5 wt. %, pH 7.4
  hydrogel formed (in words): transparent and uniform hydrogel

## C(DiGlcNAc)-(RADA)4 [Compound 2]
[1]; 0.5 wt. %, pH 3.5 and pH 7.4
  hydrogel formed (in words): transparent and uniform hydrogels
[1]; 1 wt. %, all pH ranges (pH 2.0-pH 11.5)
  hydrogel formed (in words): transparent and uniform hydrogels
[1]; 1 wt. %, pH 3.5 and pH 7.4
  hydrogel formed (in words): transparent and uniform hydrogels
[1]; hydrogel concentration 0.25 wt. %, pH 3.5
  position of the steel ball / hydrogel state: X
[1]; hydrogel concentration 0.25 wt. %, pH 7.4
  position of the steel ball / hydrogel state: ◯
[1]; [5]
  position of the steel ball / hydrogel state: ◯
[1]; [6]
  position of the steel ball / hydrogel state: ◯
[1]; hydrogel concentration lowered to 0.25 wt. %
  hydrogel formed (in words): formed a uniform hydrogel only at pH 7.4
[1]; peptide concentration 1 wt. %, pH 2.0
  position of the steel ball / hydrogel state: ◯
[1]; [7]
  position of the steel ball / hydrogel state: ◯
[1]; [8]
  position of the steel ball / hydrogel state: ◯
[1]; peptide concentration 1 wt. %, pH 11.5
  position of the steel ball / hydrogel state: ◯
[2]; plasma concentration 5%
  position of the steel ball / hydrogel state: ◯
[2]; plasma concentration 5-50%
  hydrogel formed in presence of blood plasma (in words): formed uniform hydrogels regardless of the plasma concentration
[2]; plasma concentration 10%
  position of the steel ball / hydrogel state: ◯
[2]; plasma concentration 25%
  position of the steel ball / hydrogel state: ◯
[2]; plasma concentration 50%
  position of the steel ball / hydrogel state: ◯
[3]; neutral pH
  β sheet structure formation: forms a β sheet structure
[3]; pH 2, 100 mM aqueous polypeptide solution
  molar ellipticity (CD): high molar ellipticity
[3]; pH 7, 100 mM aqueous polypeptide solution
  molar ellipticity (CD): high molar ellipticity
[4]
  rigidity of hydrogel formed: rigid hydrogel
[4]; frequency 1 Hz, distortion 10%
  phase angle (tan δ) over a time course: decreased rapidly

## C(DiGlcNAc)-(RADA)5 [Compound 7]
[1]; [7]
  position of the steel ball / hydrogel state: ◯
[1]; [8]
  position of the steel ball / hydrogel state: ◯

## C(DiGlcNAc)-(RATARAEA)2 [Compound 17]
[1]; 0.5 wt. %, pH 3.5 and pH 7.4
  hydrogel formed (in words): transparent and uniform hydrogels; also recorded: transparent and uniform gel
[1]; [5]
  position of the steel ball / hydrogel state: ◯
[1]; [6]
  position of the steel ball / hydrogel state: ◯

## C(Disialo)-(RADA)4 [Compound 3]
[1]; [7]
  position of the steel ball / hydrogel state: ◯
[1]; [8]
  position of the steel ball / hydrogel state: ◯

## C(Disialo)-(RADA)5 [Compound 5]
[1]; [7]
  position of the steel ball / hydrogel state: ◯
[1]; [8]
  position of the steel ball / hydrogel state: ◯

## C(PEG2000)-(RADA)5 [Compound 15, reference compound]
[1]; 0.5 wt. %, pH 3.5 and pH 7.4
  hydrogel formed (in words): uniform hydrogels were not formed
[1]; [5]
  position of the steel ball / hydrogel state: X
[1]; [6]
  position of the steel ball / hydrogel state: X

## N(Asialo)-(RADA)4 [Compound 18]
[1]; 1 wt. %, pH 3.5 and pH 7.4
  hydrogel formed (in words): transparent and uniform hydrogels
[1]; [7]
  position of the steel ball / hydrogel state: ◯
[1]; [8]
  position of the steel ball / hydrogel state: ◯

## N(DiGlcNAc)-(RADA)4 [Compound 19]
[1]; 1 wt. %, pH 3.5 and pH 7.4
  hydrogel formed (in words): transparent and uniform hydrogels
[1]; [7]
  position of the steel ball / hydrogel state: ◯
[1]; [8]
  position of the steel ball / hydrogel state: ◯
